Results reported in PMC5386672, “Structure-guided design of purine-based probes for selective Nek2 inhibition” (Oncotarget, 2016).
pIC50: −log10 of the molar value.

Target: CDK2 (Homo sapiens, UniProt P24941)
Assay: CDK2 kinase inhibition assay
Type: biochemical
Conditions: 12.5 μM ATP

Question: How did the pIC50 turn out when c1ccc(Nc2nc(OCC3CCCCC3)c3nc[nH]c3n2)cc1 [2-aminophenyl-6-(cyclohexylmethoxy)-9H-purine] was run?
Answer: 6.00
